A word on the EC50: it is the concentration giving half of the maximal effect. Low readings indicate higher potency in that assay, high ones lower potency in that assay.

Amino acid sequences for entries named in this document (tags omitted). A change or cut given only in a name is not applied to a line headed by its entry.
UniProt P08588: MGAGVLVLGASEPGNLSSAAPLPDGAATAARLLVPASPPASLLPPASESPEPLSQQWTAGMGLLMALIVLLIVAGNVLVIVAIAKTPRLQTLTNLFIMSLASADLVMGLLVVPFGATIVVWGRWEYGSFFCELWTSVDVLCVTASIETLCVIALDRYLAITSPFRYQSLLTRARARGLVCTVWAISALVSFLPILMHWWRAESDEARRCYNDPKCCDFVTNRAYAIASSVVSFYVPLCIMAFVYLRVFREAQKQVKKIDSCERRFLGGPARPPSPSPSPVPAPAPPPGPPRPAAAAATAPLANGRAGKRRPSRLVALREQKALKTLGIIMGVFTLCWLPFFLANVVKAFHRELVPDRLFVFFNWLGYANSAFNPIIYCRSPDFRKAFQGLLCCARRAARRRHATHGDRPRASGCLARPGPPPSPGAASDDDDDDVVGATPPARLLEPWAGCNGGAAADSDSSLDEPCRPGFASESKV
UniProt P07550: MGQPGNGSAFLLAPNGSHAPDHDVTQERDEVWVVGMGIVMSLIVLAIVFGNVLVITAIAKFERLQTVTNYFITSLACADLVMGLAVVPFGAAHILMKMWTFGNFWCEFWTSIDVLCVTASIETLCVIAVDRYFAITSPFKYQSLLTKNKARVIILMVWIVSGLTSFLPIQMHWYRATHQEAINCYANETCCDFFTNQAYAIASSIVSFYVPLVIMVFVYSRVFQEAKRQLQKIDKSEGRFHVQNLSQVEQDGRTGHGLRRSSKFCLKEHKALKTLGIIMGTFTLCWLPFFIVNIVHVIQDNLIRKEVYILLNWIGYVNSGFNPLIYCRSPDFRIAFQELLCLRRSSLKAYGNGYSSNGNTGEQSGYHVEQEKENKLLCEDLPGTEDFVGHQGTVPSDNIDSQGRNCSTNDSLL
UniProt P13945: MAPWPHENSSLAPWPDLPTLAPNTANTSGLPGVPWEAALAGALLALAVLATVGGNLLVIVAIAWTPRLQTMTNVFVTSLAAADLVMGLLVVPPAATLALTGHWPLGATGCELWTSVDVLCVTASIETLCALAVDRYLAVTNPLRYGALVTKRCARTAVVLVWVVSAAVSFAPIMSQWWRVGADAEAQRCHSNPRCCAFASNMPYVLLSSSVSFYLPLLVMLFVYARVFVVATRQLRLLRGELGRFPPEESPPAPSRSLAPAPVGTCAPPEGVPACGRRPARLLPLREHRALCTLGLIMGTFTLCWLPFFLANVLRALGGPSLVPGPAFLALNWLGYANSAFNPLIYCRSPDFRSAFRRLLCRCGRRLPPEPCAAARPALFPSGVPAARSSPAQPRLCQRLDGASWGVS

EC50 data for one molecule are collected here from ChEMBL document CHEMBL1133871, “4-Aminopiperidine ureas as potent selective agonists of the human beta(3)-adrenergic receptor” (Bioorg Med Chem Lett, 2001).

The experiment has as its target Adrenergic receptor beta (Homo sapiens, UniProt P08588+P07550+P13945). The experiment is described as follows: In vitro agonistic activity against cAMP accumulation level in CHO cells expressing human beta-AR receptor. The format is functional, cell-based. A general note: Cyclic AMP is a second messenger, typically raised through Gs and lowered through Gi signalling.

In turn, `O=C(NC1CCCCC1)N1CCC(Nc2ccc(CCNC[C@H](O)COc3ccc(O)cc3)cc2)CC1` showed an EC50 of 77 nM.
